Values quoted from earlier work as cited in patent US7049092B1 (priority 1999, dated 2006).

Molecular target: hormone-sensitive lipase
Conditions: read-out: IC50 (concentration producing 50% inhibition)

For `[F-].[Na+]` [NaF (sodium fluoride), sodium fluoride], the IC50 is given as 25 mM.
